Data from ChEMBL document CHEMBL1151934, “Exploration and optimization of substituted triazolothiadiazines and triazolopyridazines as PDE4 inhibitors” (Bioorg Med Chem Lett, 2009).

Amino acid sequences for entries named in this document (tags omitted). A change or cut given only in a name is not applied to a line headed by its entry.
UniProt O76083: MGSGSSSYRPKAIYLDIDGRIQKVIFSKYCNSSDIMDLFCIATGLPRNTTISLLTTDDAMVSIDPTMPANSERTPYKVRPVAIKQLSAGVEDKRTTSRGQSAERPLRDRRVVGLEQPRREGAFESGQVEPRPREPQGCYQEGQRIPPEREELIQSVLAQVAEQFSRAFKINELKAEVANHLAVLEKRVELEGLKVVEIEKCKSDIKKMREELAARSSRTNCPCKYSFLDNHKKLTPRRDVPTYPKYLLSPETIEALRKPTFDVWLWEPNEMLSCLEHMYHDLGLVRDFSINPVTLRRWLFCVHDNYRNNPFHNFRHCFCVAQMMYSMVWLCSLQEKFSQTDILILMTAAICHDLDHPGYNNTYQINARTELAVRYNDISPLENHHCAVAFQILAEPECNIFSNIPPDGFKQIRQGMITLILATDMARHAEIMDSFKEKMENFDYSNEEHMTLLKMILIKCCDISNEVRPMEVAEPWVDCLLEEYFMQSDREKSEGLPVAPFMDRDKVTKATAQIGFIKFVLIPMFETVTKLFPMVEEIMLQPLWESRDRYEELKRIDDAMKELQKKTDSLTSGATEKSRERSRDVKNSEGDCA
UniProt Q9HCR9: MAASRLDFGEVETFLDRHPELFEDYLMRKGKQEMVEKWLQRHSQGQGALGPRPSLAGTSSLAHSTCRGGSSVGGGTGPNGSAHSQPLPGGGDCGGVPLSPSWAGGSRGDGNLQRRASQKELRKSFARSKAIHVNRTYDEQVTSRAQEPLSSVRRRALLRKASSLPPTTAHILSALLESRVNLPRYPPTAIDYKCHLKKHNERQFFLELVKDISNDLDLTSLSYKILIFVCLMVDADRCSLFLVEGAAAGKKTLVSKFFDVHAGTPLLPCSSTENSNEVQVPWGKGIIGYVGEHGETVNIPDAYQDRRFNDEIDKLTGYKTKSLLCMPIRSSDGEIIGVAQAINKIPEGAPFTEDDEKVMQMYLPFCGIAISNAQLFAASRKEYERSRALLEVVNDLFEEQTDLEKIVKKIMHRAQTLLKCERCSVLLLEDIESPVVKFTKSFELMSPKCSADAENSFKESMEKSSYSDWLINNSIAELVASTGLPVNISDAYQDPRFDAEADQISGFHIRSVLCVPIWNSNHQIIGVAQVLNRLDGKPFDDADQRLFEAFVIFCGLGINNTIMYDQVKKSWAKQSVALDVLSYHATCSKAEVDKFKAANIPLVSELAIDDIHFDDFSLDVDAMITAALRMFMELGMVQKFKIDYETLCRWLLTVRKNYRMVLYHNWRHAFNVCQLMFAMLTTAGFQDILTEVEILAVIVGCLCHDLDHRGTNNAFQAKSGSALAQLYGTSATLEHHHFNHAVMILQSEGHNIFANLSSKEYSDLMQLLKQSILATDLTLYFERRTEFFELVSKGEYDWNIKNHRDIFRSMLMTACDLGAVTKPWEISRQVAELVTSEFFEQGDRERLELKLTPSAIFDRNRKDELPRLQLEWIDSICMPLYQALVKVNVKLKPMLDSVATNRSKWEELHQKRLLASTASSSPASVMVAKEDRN
UniProt P54750: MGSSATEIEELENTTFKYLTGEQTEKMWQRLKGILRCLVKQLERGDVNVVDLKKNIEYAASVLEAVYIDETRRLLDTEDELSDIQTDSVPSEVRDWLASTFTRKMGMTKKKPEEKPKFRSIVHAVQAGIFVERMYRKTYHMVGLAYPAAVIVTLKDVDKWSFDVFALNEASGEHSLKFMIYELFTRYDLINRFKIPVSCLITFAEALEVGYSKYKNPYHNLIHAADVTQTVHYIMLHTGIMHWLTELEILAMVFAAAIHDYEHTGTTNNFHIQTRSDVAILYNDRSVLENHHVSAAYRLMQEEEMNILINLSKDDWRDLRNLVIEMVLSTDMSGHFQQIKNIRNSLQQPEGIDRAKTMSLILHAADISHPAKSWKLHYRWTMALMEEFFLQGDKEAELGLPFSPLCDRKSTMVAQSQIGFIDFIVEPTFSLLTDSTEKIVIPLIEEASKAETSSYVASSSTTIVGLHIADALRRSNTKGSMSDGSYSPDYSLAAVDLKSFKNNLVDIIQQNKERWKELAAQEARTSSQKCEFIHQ
UniProt O60658: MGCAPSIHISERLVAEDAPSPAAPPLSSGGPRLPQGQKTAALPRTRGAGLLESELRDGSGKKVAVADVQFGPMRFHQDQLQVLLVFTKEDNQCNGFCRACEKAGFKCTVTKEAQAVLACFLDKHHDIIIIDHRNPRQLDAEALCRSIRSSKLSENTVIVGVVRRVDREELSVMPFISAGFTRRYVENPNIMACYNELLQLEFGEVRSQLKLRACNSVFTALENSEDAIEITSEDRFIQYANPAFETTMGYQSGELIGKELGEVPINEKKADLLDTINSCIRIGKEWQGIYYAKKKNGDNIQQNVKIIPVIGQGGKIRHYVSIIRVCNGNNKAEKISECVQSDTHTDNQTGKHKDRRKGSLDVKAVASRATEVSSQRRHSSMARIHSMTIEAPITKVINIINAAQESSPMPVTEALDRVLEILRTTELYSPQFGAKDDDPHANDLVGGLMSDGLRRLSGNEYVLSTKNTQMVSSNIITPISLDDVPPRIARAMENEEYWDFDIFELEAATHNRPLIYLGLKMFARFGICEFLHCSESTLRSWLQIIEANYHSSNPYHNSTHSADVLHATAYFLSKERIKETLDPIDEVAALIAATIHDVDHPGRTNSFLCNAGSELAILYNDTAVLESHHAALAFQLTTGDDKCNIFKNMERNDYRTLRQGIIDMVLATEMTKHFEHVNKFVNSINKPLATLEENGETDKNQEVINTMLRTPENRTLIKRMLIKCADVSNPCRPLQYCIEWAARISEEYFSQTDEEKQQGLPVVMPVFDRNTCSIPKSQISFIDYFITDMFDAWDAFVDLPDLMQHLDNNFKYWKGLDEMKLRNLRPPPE

How the values were obtained:
[1] = molecular target: High affinity cGMP-specific 3',5'-cyclic phosphodiesterase 9A (Homo sapiens, UniProt O76083); assay: Inhibition of PDE9A2
[2] = molecular target: Dual 3',5'-cyclic-AMP and -GMP phosphodiesterase 11A (Homo sapiens, UniProt Q9HCR9); assay: Inhibition of PDE11A4
[3] = molecular target: Dual specificity calcium/calmodulin-dependent 3',5'-cyclic nucleotide phosphodiesterase 1A (Homo sapiens, UniProt P54750); assay: Inhibition of PDE1A
[4] = molecular target: High affinity cAMP-specific and IBMX-insensitive 3',5'-cyclic phosphodiesterase 8A (Homo sapiens, UniProt O60658); assay: Inhibition of PDE8A1

| SMILES | IC50 [1] | IC50 [2] | IC50 [3] | IC50 [4] |
| --- | --- | --- | --- | --- |
| COc1ccc(OC)c(-c2nnc3n2N=C(c2ccc(OC)c(OC)c2)CS3)c1 | Not Active | Not Active | Not Active |  |
| COc1ccc(OC)c(-c2nnc3ccc(-c4ccc(OC)c(O[C@@H]5CCOC5)c4)nn23)c1 | Not Active | Not Active |  | Not Active |
| COc1ccc(OC)c(-c2nnc3n2N=C(c2ccc(OC)c(O[C@@H]4CCOC4)c2)CS3)c1 | Not Active | Not Active |  | Not Active |
| COc1ccc(C2CNC(=O)C2)cc1OC1CCCC1 (stereo not given) [ROLIPRAM] |  |  | Not Active |  |
